The series is described as follows: Solubility Assay (saturation, shaker 24 hours, supernatant analysed by HPLC). The following applies: for Solubility (mg/ml) in ethanol: solvent ethanol; for Solubility (mg/ml) in ethanol / Solubility (mg/ml) in water: 25 deg C./60% relative humidity, 24 hours; for Solubility (mg/ml) in water: solvent water.

Regarding Lysine, the “Solubility (mg/ml) in ethanol” value is <5 mg/mL and the “Solubility (mg/ml) in water” value was <5 mg/mL.

As for “2-[4-(2,2-Difluoro-ethylcarbamoyl)-phenyl]-6-fluoro-2H-pyrazolo[4,3-c]cinnolin-3-olate (2-hydroxy-ethyl)-trimethyl-ammonium [Choline]”, the “Solubility (mg/ml) in ethanol” value is >21 mg/mL and the “Solubility (mg/ml) in water” value was >51 mg/mL. Where the note is “water, qualitative statement”, the “aqueous solubility (in words)” value is “good aqueous solubility”.

Source of the values: patent publication US20090221590A1, “SALT OF CD 80 ANTAGONIST” (MEDIGENE LIMITED, priority 2006, published 2009).
